Data from ChEMBL document CHEMBL6114976, “Structure-based design, synthesis and biological evaluation of a novel d-amino acid-containing peptide inhibitor by blocking the RAD51-BRCA2 interaction for the treatment of kidney cancer” (Eur J Med Chem, 2025).

Test system: 786-0
Assay: cells
Settings: Homo sapiens, 786-0, 72 h

IC50: 3.68 µM
SMILES: COc1ccc([C@H](C)NC(=O)[C@@H]2C[C@@H](O)CN2C(=O)CNC(=O)c2ccc3cc(F)ccc3n2)c(Cl)c1
